Binding of CDR-mutated scFvs to a peptide of the spike HR2 region

Target peptide (SARS-CoV-2 spike, HR2 region): PDVDLGDISGINAS

Parent scFv Ab-14: VH joined to VL by three GGGGS repeats. Changes lie in the light chain CDRs alone.
VH: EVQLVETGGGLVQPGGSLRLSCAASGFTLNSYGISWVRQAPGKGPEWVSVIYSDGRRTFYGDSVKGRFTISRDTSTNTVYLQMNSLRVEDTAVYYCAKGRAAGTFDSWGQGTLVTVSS
VL: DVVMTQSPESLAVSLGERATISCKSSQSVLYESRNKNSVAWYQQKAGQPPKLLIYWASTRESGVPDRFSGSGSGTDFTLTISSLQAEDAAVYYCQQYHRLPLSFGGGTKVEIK

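The starting antibody came from a phage panning campaign against this peptide. The library (AAYL50) carries one to three amino acid substitutions per variant, with no insertions or deletions. The scFvs were displayed on barcoded MATa yeast, the peptide on MATalpha yeast. The frequency of each diploid, read from paired DNA barcodes, reflects how well the two displayed proteins bind. Each replicate has its own calibration line, from reference interactions of the BCL2 family. There are three technical replicates.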

The parent's light chain CDRs are KSSQSVLYESRNKNSVA, WASTRES, QQYHRLPLS; each variant's own CDRs replace them letter for letter. This list gathers variants with a substitution at N37 (VL, numbered from residue 1). Kd is apparent (estimated from mating counts) and averaged on the log scale over replicates with a signal. Smaller is tighter. "not detected" means that the variant was in the library but no mating with the target was seen in any replicate; the authors take this as a sign of poor binding, and no number exists. Parent in this assay: reference entry 4.4 nM, copy in this library 48 nM. Nonspecific signal, from three strains lacking the peptide, appeared in 18% of pairings of library AAYL50, centred on 15 µM (5% of these signals below 970 nM); values are not corrected for it.

| CDR-L1 | CDR-L2 | CDR-L3 | Kd | detected |
|---|---|---|---|---|
| KSSQSWLYESRNKRSVA | WASTRES | QQYHSLPLS | 16 nM | 3/3 |
| KSSQSVLYWSRNKASVA | WASTRES | QQYHRLQLS | not detected | 0/3 |
| KSSQSVLYESRNKCTVA | GASTRES | QQYHRLPLS | 11 nM | 3/3 |
| KSSMSVLYESRNKQSVA | WASTRES | QQMHRLPLS | 1.2 µM | 1/3 |
| KSSQSVLYESMNKGSVA | WASTRES | QQPHRLPLS | 880 nM | 1/3 |
| KSAQSVLYESRNKASVA | WASTRFS | QQYHRLPLS | 29 nM | 3/3 |
| KSSQSVLYESRNKQSVA | WASTRES | QQYHFLPAS | not detected | 0/3 |
| KSSQSVLYESLNKRSVA | WASTRLS | QQYHRLPLS | 19 nM | 3/3 |
| FSSQSVLYESRNKDSVA | WASTRES | AQYHRLPLS | 81 nM | 3/3 |
| KSSQSVLYESRNKISVA | DASTRES | VQYHRLPLS | 5.3 nM | 3/3 |
| KSSQSVLYESRNLSSVA | WASTRES | QQYHRLDLS | not detected | 0/3 |
| KSSQSVLNESRNKYLVA | WASTRES | QQYHRLPLS | 3.1 mM | 1/3 |
| KSSQSVLYSSSNKISVA | WASTRES | QQYHRLPLS | 4.6 µM | 3/3 |
| KSSQSVLYESRNKFSVA | WASTRES | QQYHRLPRS | 150 nM | 3/3 |
| KSSQSVLYESRLKISVA | WASTRES | QQYHRLPLS | not detected | 0/3 |
| KSSQSVLYESRNKLSGA | WASTRES | QNYHRLPLS | not detected | 0/3 |
| KSSQSVRYESRNYHSVA | WASTRES | QQYHRLPLS | not detected | 0/3 |
| KSSQSVLYESRYKSSVA | WASTQES | QQYHRLPLS | not detected | 0/3 |
| KSSQSVLYESRNKISVA | WASTPES | QQYHRLPLS | not detected | 0/3 |
| KSSQSVLYESRNKRSCA | WASTQES | QQYHRLPLS | not detected | 0/3 |
| KSSQSVLYGSRNKGSVA | WASTRES | QQYHRLPSS | 18 nM | 3/3 |
| KSSQSVLYESRNKHSVA | WAFTRES | QQYHRLPLP | 1.8 µM | 3/3 |
| KSSQSVLYESRNTCSVP | WASTRES | QQYHRLPLS | not detected | 0/3 |
| KSSQPVLYESRFKDSVA | WASTRES | QQYHRLPLS | 48 nM | 3/3 |
| KKSQSILYESRNKASVA | WASTRES | QQYHRLPLS | not detected | 0/3 |
| KSSQSVLYVSRRKCSVA | WASTRES | QQYHRLPLS | 43 µM | 1/3 |
| KSSQSVLYESRNKDSYA | WASTRES | QQYHRMPLS | not detected | 0/3 |
| KSSQSVLYGSRNKISVA | WASTRES | QQAHRLPLS | not detected | 0/3 |
| KSIQSVLYESRNKWSVA | WASTRES | QQYSRLPLS | 310 nM | 3/3 |
| KSRQSVLYESRNMYSVA | WASTRES | QQYHRLPLS | 9.4 nM | 3/3 |
| KSLQSVLYTSRNKYSVA | WASTRES | QQYHRLPLS | 39 nM | 3/3 |
| KSSQSVLYESRNKTSVA | WASTRES | QQYHRLPLS | 820 nM | 3/3 |
| KSGQSVLYESRQKDSVA | WASTRES | QQYHRLPLS | 170 nM | 3/3 |
| KSSQSVLYESRNKRGVA | SASTRES | QQYHRLPLS | 980 pM | 3/3 |
| KSSQSVLYESRNKESVA | WASTCES | QQYHRFPLS | 1.0 µM | 1/3 |
| KSSQSVLYESRNKMCRA | WASTRES | QQYHRLPLS | not detected | 0/3 |
| KSSQSVLYESRNKPSVA | WASTRES | QQRHALPLS | 98 nM | 3/3 |
| KSSQSVLYYSRNKDSVA | WASTRES | QQYHRLPLS | 92 nM | 3/3 |
| KSSQSVLSESRNKCSVA | WASTRES | QQYHRLPLS | 13 nM | 3/3 |
| KSSQSVLYEHWNKGSVA | WASTRES | QQYHRLPLS | not detected | 0/3 |
| KSSQSVLYESRQKKSVA | WASTRES | QQYHRLPVS | 1.9 µM | 3/3 |
| HSSQSVLYESRNKCSVA | WASTRES | QQYHRLPLF | 310 nM | 1/3 |
| KSSQSVLYESRNKESVA | WASTRLS | QTYHRLPLS | 2.3 µM | 1/3 |
| KSSQSVLYESRNKLSVA | WASTRES | EQYHRLPHS | not detected | 0/3 |
| KSIQSVLKESRNKWSVA | WASTRES | QQYHRLPLS | 170 nM | 3/3 |
| KASQHVLYESRNKMSVA | WASTRES | QQYHRLPLS | 72 nM | 3/3 |
| KSSKSVLYESTNKSSVA | WASTRES | QQYHRLPLS | 100 nM | 3/3 |
| WSSQSVLYESRNKLSVA | WASTRES | QQYRRLPLS | 1.2 µM | 2/3 |
| KSSQSVLYESRNKHSVA | WAPTRES | QQYTRLPLS | 29 nM | 3/3 |
| KSSKSVLYESRNTFSVA | WASTRES | QQYHRLPLS | 130 nM | 3/3 |
| KSSQSVLYESRNKISVA | WASTRES | QQYLRFPLS | 45 µM | 1/3 |
| KSSGSVLYESRNKTSVA | WASTRES | QQYHRLPLS | 300 nM | 3/3 |
| KSSQSVLYENRNKHSVA | WASLRES | QQYHRLPLS | not detected | 0/3 |
| KPSQSVLYESRNKLSVA | WASTRES | QHYHRLPLS | 93 µM | 2/3 |
| KSSQSVLYESRNKGSVA | WASTRES | QQYHRLPLS | 72 nM | 3/3 |
| KSSQSVLYESRNKTSVG | WASTRES | QQYHRMPLS | 85 µM | 1/3 |
| KSSQSVLYESRNKISNA | WASTRES | QQYMRLPLS | 68 µM | 1/3 |
| KYSQSVLYESRNKRSVA | WASTRES | QQYFRLPLS | 16 nM | 3/3 |
| KSSQSVLYESRNKTSVA | WASRREK | QQYHRLPLS | not detected | 0/3 |
| KLSKSVLYESRNKMSVA | WASTRES | QQYHRLPLS | not detected | 0/3 |
| KSSQSVLLEPRNKKSVA | WASTRES | QQYHRLPLS | 19 nM | 3/3 |
| KSSQKVLYESRNKYSVA | WASTRES | QQWHRLPLS | not detected | 0/3 |
| KSSQSVLYESDNKTSVA | WASTRKS | QQYHRLPLS | 4.0 µM | 2/3 |
| KSSQSVLYESRNKQSVA | WASTRES | QQYHRLPGQ | 12 nM | 3/3 |
| KSSQNVLYESRNKVSVA | WASTRES | QQYHRLPLG | not detected | 0/3 |
| MSSQSVLYESRNKQSVA | WASTRIS | QQYHRLPLS | 3.2 µM | 2/3 |
| KSSQSVLYESRNKTSMA | WASTRES | QQYHRLPLS | 1.7 µM | 3/3 |
| KSSQSVLYESRNKDSVA | WAHTRES | QQYHRLPLS | not detected | 0/3 |
| KFDQSVLYESRNKDSVA | WASTRES | QQYHRLPLS | 1.0 nM | 3/3 |
| MSSQQVLYESRNKRSVA | WASTRES | QQYHRLPLS | 1.6 µM | 3/3 |
| KSSQSVLYESENKLSVA | WASTRES | QQYHRLPLF | 20 nM | 3/3 |
| KSSQSVLVESRNKVSVA | WASTRES | QQYHRGPLS | not detected | 0/3 |
| KSSQSVLYESRRKDSVA | WAFTRES | QQYHRLPLS | 17 µM | 2/3 |
| KSSQSVLYESRVKHSVA | WASTRES | QVYHRLPLS | 43 nM | 3/3 |
| KSSQSVFYESRNKTSVH | WASTRES | QQYHRLPLS | not detected | 0/3 |

From the AlphaSeq antibody data of Engelhart et al. 2022 (doi:10.1038/s41597-022-01779-4), copy in the FLAb collection.